Experiments:
[1] = molecular target: p38 MAPK (Homo sapiens, UniProt Q16539); assay: phosphorylation assay of p38 MAPK activity (see Kumar); assay type: biochemical; conditions: read-out: IC50 value as quantitated according to Kumar; criterion met by the inhibitor used in the experiments
[2] = system: NOD mice; assay: Preventive studies in pre-diabetic NOD mice, 10 weeks of treatment in the diet; conditions: for Diabetes incidence at 18 weeks: diabetes = blood glucose greater than 120 mg/dl, vehicle 60%
[3] = p38 MAP kinase inhibitor in serum samples by LC/MS/MS; conditions: during the study period
[4] = system: mildly hyperglycemic NOD mice; assay: Therapeutic studies on mildly hyperglycemic NOD mice, 17 days
[5] = system: mildly hyperglycemic NOD mice; assay: Fasting blood glucose and glucose tolerance studies in mildly hyperglycemic NOD mice
[6] = system: severely hyperglycemic NOD mice; assay: Studies on severely hyperglycemic NOD mice, 17 days; conditions: high dose
[7] = system: NOD mice; assay: Example 2: incidence of diabetes and HSP 60 expression in NOD mice
[8] = 600 mg/kg in feed, 13 and 18 weeks

Protein sequences, listed by entry. Tags and fused reporters are not part of them.
UniProt Q16539, whole entry: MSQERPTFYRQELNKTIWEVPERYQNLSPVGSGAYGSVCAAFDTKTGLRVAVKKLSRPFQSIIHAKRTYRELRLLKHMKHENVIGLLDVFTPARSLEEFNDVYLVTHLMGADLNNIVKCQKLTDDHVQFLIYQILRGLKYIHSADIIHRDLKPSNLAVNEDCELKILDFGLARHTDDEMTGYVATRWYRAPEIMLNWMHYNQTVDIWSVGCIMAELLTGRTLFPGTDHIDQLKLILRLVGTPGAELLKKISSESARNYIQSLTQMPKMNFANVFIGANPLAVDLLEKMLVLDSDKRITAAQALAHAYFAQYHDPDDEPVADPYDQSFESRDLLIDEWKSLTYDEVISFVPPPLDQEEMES

COc1cc2c(cc1C(=O)N1CCC(Cc3ccc(F)cc3)CC1)c(C(=O)C(=O)N(C)C)cn2C
IC50 [1]: ≤ 5 µM
Body weight loss ([2]; 10 weeks, vs. vehicle group): significantly reduced body weight loss
Onset of diabetes ([2]; blood glucose greater than 120 mg/dl, p<0.01 vs. vehicle): dose-dependent delay in the onset of diabetes
Blood glucose levels ([2]; both dose groups, vs. vehicle group): significantly lowered blood glucose levels
Serum insulin levels ([2]; both dose groups, increase significant at high dose): increased serum insulin levels
Insulitis scores ([2]; both doses, p<0.05 vs. vehicle): suppressed insulitis scores
Ratio of CD+4 and CD+8 T cells ([2]; high dose, 10 weeks): without affecting their ratio
CD+4 and CD+8 T cells infiltration into the beta cells ([2]; high dose, 10 weeks, immunohistochemistry): remarkably suppressed
p38 expression in the T cells infiltrated into the beta cells ([2]; high dose, 10 weeks, p<0.001 vs. vehicle): significantly decreased
Diabetes incidence at 18 weeks ([2]; high dose): 10%
Lymphocyte infiltration of pancreata (H&E histology) ([2]; low and high doses, after 10 weeks): only minor lymphocyte infiltration
Diabetes incidence at 18 weeks ([2]; low dose): 30%
p38 MAP kinase inhibitor in the serum ([3]; high dose group): 1.8 µM
p38 MAP kinase inhibitor in the serum ([3]; low dose group): 0.6 µM
Weight loss ([4]; 17 days, p<0.05 vs. vehicle): decrease in weight loss
Insulin levels ([4]; 17 days, vs. vehicle): higher insulin levels
Development of hyperglycemia (blood glucose) ([4]; low and high dose, by day 17): dose-dependently prevented the development of hyperglycemia
Oral glucose tolerance ([5]; 17 days, oral glucose challenge 2 g/kg, p<0.05 vs. vehicle): improved glucose tolerance
Fasting blood glucose levels ([5]; high dose, day 17, p<0.05 vs. vehicle): lower fasting blood glucose levels
Glucose tolerance at 30 minutes of the test ([5]; high dose, p<0.001 vs. vehicle): highly significant improvement in glucose tolerance
Blood glucose [6]: no effect
Body weight [6]: no effect
Serum insulin levels [6]: no effect
Blood glucose levels [7, 8]: lowered blood glucose levels
Development of Type-1 diabetes (percent incidence) [7, 8]: prevented the development of Type-1 diabetes
HSP60 expression in pancreata (immunohistochemistry) ([7]; 13 and 18 weeks): reduced HSP60 expression
Percent of HSP 60 positive lymphocytes in pancreatic islets ([7]; week 13 and 18): reduced levels expression of HSP 60

Reference: US20040171659A1, “Methods for treating diabetes” (priority 2002, published 2004)
